## Apparent affinities of Ab-14 variants for a coronavirus HR2 peptide

Binding partner: SARS-CoV-2 spike HR2 peptide, sequence PDVDLGDISGINAS.

The variants keep the heavy chain, the linker and the frameworks of Ab-14 (scFv order VH, a 15-residue (Gly4Ser)3 linker, VL).
VH: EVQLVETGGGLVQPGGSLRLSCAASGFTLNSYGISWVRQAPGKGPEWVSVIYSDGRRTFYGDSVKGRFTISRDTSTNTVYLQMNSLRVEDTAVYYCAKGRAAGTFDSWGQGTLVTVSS
VL: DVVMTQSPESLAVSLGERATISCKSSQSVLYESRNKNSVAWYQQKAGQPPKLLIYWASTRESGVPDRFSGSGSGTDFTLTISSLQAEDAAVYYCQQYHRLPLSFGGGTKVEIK

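The starting antibody came from a phage panning campaign against this peptide. The library (AAYL50) carries one to three amino acid substitutions per variant, with no insertions or deletions. AlphaSeq pools MATa yeast showing the antibodies with MATalpha yeast showing the peptide. After mating in shaken culture at 30 °C for 16 h, diploids were selected and their barcode pairs sequenced. Scores were corrected for input abundance and mapped to Kd with protein pairs of known affinity run in the same pool. Mating was done three times.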

Sequences are complete VL domains.
Scale: log10 of Kd in nM, estimated from mating counts; low values are strong binders.
The mean shown is taken over the replicates in which the pair was detected.
A pair that was not seen in any replicate is written "no signal"; this usually means weak binding, but a binder can also be missed.
Nonspecific signal, from three strains lacking the peptide, appeared in 18% of pairings of library AAYL50, centred on 4.19 (5% of these signals below 2.99); values are not corrected for it. For each scFv, signals with the empty controls are counted beside the result.

| log10 Kd (nM), mean | replicates with signal | signal with controls | VL |
|---|---|---|---|
| no signal | 0 of 3 | 1 of 9 | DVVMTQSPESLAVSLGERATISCKSSQGVLYESRNKNSVAWYQQKAGQPPKLLIYWQSTIESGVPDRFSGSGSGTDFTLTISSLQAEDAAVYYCQQYHRLPLSFGGGTKVEIK |
| 0.64 | 3 of 3 | 1 of 9 | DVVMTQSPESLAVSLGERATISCKSSLSVLYESRNKNSVAWYQQKAGQPPKLLIYWASTREPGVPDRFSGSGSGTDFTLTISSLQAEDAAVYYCQQYHRLPLSFGGGTKVEIK |
| 3.00 | 1 of 3 | 3 of 9 | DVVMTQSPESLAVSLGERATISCKSSQSVLYESFNKNKVAWYQQKAGQPPKLLIYWMSTRESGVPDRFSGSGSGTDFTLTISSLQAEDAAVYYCQQYHRLPLSFGGGTKVEIK |
| 1.28 | 3 of 3 | 1 of 9 | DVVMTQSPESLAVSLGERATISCKSSQSVTYESRNKNSDAWYQQKAGQPPKLLIYWASTRVSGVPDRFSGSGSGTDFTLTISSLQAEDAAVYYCQQYHRLPLSFGGGTKVEIK |
| no signal | 0 of 3 | 0 of 9 | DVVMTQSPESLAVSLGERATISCKSSQSVEYESFNKNSVAWYQQKAGQPPKLLIYWASTMESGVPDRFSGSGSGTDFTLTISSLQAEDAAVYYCQQYHRLPLSFGGGTKVEIK |
| 4.19 | 2 of 3 | 2 of 9 | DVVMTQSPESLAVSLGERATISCKSSQSVLYISRNKNSVAWYQQKAGQPPKLLIYNASTPESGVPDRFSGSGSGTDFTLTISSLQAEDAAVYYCQQYHRLPLSFGGGTKVEIK |
| no signal | 0 of 3 | 1 of 9 | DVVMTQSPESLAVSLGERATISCWSSQSVLYESWNKNSVAWYQQKAGQPPKLLIYWASTRWSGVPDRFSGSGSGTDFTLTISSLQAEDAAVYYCQQYHRLPLSFGGGTKVEIK |
| 4.61 | 2 of 3 | 3 of 9 | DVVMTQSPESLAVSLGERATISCKSAQSVLYESRNKNSVLWYQQKAGQPPKLLIYWASTRESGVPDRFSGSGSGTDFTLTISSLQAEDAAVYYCQQYIRLPLSFGGGTKVEIK |
| 3.07 | 1 of 3 | 3 of 9 | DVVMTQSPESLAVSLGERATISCHSSQSVSYESRNKNSVAWYQQKAGQPPKLLIYWASTRESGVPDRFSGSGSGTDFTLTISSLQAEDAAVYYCQQGHRLPLSFGGGTKVEIK |
| 0.35 | 3 of 3 | 1 of 9 | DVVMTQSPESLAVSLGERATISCKSSQSVLYESRNDNSVAWYQQKAGQPPKLLIYWASKRESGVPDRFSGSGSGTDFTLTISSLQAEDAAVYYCQQYHRLPLSFGGGTKVEIK |
| 2.23 | 3 of 3 | 4 of 9 | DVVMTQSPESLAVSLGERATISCKSSQSVLYESRNKNSVAWYQQKAGQPPKLLIYDASTYRSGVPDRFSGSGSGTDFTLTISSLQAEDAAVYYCQQYHRLPLSFGGGTKVEIK |
| 2.16 | 3 of 3 | 2 of 9 | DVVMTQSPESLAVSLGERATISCKSSQSVYYEFRNKNSVAWYQQKAGQPPKLLIYWASTRESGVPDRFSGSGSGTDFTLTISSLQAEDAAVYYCQQYHRLPLMFGGGTKVEIK |
| 2.87 | 2 of 3 | 1 of 9 | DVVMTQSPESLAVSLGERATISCKSSQSVLYEGRNENSVAWYQQKAGQPPKLLIYWASTRESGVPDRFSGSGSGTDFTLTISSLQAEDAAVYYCQQYMRLPLSFGGGTKVEIK |
| 3.44 | 3 of 3 | 0 of 9 | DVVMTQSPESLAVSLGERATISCKSSTSVLCESRNKNSVAWYQQKAGQPPKLLIYWASTRESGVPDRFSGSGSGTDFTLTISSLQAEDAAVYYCQQYHRDPLSFGGGTKVEIK |
| 3.77 | 3 of 3 | 8 of 9 | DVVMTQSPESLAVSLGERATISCKSSNSVLYESRNKNSVAWYQQKAGQPPKLLIYWASTRESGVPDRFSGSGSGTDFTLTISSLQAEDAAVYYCWQFHRLPLSFGGGTKVEIK |
| 0.55 | 3 of 3 | 1 of 9 | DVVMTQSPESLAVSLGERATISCKSSQSVLYESRNKNSVAWYQQKAGQPPKLLIYWASERESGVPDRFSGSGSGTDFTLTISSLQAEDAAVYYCQQYHRLLLSFGGGTKVEIK |
| 4.04 | 1 of 3 | 4 of 9 | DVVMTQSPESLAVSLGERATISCKSSQSVLYESRLKNSVTWYQQKAGQPPKLLIYWASTREIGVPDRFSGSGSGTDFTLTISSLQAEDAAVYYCQQYHRLPLSFGGGTKVEIK |
| 6.00 | 1 of 3 | 1 of 9 | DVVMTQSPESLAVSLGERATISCKSSQSVLKESRNKNSVAWYQQKAGQPPKLLIYWASTQEPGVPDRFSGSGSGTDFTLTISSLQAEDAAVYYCQQYHRLPLSFGGGTKVEIK |
| no signal | 0 of 3 | 2 of 9 | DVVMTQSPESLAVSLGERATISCKSSQVVLYESRNKNSVAWYQQKAGQPPKLLIYWHSTRESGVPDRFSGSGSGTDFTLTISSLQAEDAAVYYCNQYHRLPLSFGGGTKVEIK |
| 2.82 | 3 of 3 | 0 of 9 | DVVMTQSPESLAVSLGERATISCKSSQSVLYEGRNKNSVAWYQQKAGQPPKLLIYWASTHEGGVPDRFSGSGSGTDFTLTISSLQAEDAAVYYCQQYHRLPLSFGGGTKVEIK |
| no signal | 0 of 3 | 2 of 9 | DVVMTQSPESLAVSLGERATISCKSSQSVLYESRCKNSVAWYQQKAGQPPKLLIYWASTRESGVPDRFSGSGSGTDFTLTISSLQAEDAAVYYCKQYHRLGLSFGGGTKVEIK |
| 2.13 | 3 of 3 | 2 of 9 | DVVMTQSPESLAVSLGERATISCKSSQSVLYESRNKTSVAWYQQKAGQPPKLLIYWAMTRESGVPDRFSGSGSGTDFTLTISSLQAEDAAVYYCQQYHFLPLSFGGGTKVEIK |
| no signal | 0 of 3 | 1 of 9 | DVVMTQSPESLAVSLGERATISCKSSQSVLYESRNKNSVVWYQQKAGQPPKLLIYWAYRRESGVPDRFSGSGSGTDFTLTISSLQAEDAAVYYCQQYHRLPLSFGGGTKVEIK |
| 3.98 | 2 of 3 | 1 of 9 | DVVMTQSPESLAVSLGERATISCKSSQSVLYESRNKNSKMWYQQKAGQPPKLLIYWASTRESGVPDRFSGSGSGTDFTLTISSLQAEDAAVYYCQQIHRLPLSFGGGTKVEIK |
| 1.79 | 3 of 3 | 4 of 9 | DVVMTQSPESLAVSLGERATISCKSSQSVLYQSRNINSVAWYQQKAGQPPKLLIYWASTRESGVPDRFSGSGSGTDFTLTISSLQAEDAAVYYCQQYHRLPLSFGGGTKVEIK |
| 2.72 | 3 of 3 | 2 of 9 | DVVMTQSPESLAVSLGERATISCKSSQSVLYESRNKSSVAWYQQKAGQPPKLLIYWASVRESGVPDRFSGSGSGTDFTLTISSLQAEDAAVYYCQTYHRLPLSFGGGTKVEIK |

3 of these entries, quoted again:

VL,"log10 Kd (nM), mean",replicates with signal,signal with controls
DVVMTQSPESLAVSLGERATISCKSSQSVTYESRNKNSDAWYQQKAGQPPKLLIYWASTRVSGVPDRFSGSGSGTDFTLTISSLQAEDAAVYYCQQYHRLPLSFGGGTKVEIK,1.28,3 of 3,1 of 9
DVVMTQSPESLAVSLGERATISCKSSQSVLYESFNKNKVAWYQQKAGQPPKLLIYWMSTRESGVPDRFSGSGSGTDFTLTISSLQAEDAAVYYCQQYHRLPLSFGGGTKVEIK,3.00,1 of 3,3 of 9
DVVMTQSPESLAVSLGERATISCKSSQSVLYESRNKTSVAWYQQKAGQPPKLLIYWAMTRESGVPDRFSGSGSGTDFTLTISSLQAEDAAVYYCQQYHFLPLSFGGGTKVEIK,2.13,3 of 3,2 of 9

For reference, the parent read 0.65 as the reference entry and 1.68 as a member of this library.

Reference: Engelhart et al. 2022, doi:10.1038/s41597-022-01779-4. File: FLAb, binding data.